Results reported in article PMC7770057 (Journal of medicinal chemistry, 2020).
Where two headings read alike, the source gives them in different places.

What was measured:
[1] = test system: HT-29 cells; assay: Antiproliferation; conditions: Homo sapiens, HT-29, 72 h, read-out: HT-29 GI50, HT-29 cells, 3 days, mean ± SD
[2] = test system: pMEK and pERK; conditions: for inhibition of MEK and ERK phosphorylation compared with degraders 24, 27 and 50: HT-29 and SK-MEL-28 cells; for inhibition of MEK and ERK phosphorylation compared with degraders 24, 27 and 50 / inhibition of MEK and ERK phosphorylation: 24 h; for time to maximum ERK phosphorylation inhibition / time to significant ERK phosphorylation inhibition: 0.1 μM; for inhibition of MEK and ERK phosphorylation: concentration-dependent
[3] = test system: H3122 cells; conditions: 3 days
[4] = test system: HT-29 cells; conditions: 10 days

Compound: CN1C(=O)CCC(N2C(=O)c3ccc(NCCOCCOCCOCCOCCOCCNCCCONC(=O)c4ccc(F)c(F)c4Nc4ccc(I)cc4F)cc3C2=O)C1=O (centres unmarked) [Compound 53, 3,4-Difluoro-2-((2-fluoro-4-iodophenyl)amino)-N-((1-((2-(1-methyl-2,6-dioxopiperidin-3-yl)-1,3-dioxoisoindolin-5-yl)amino)-3,6,9,12,15-pentaoxa-18-azahenicosan-21-yl)oxy)benzamide]
- GI50 [1]: 2600 ± 79 nM
- inhibition of MEK and ERK phosphorylation compared with degraders 24, 27 and 50 [2]: much less potent

Compound: Cc1ncsc1-c1ccc([C@H](C)NC(=O)[C@@H]2C[C@@H](O)CN2C(=O)[C@@H](NC(=O)CCCCCCCCCCCNCCCCONC(=O)c2ccc(F)c(F)c2Nc2ccc(I)cc2F)C(C)(C)C)cc1 [Compound 27, (2S,4R)-1-((S)-22-(tert-Butyl)-1-(3,4-difluoro-2-((2-fluoro-4-iodophenyl)amino)phenyl)-1,20-dioxo-3-oxa-2,8,21-triazatricosan-23-oyl)-4-hydroxy-N-((S)-1-(4-(4-methylthiazol-5-yl)phenyl)ethyl)pyrrolidine-2-carboxamide]
- growth inhibition potency compared with compound 4 [3]: better potency
- time to maximum ERK phosphorylation inhibition ([2]; HT-29 cells): ≤ 8 h
- time to significant ERK phosphorylation inhibition ([2]; HT-29 cells): ≤ 2 h
- inhibition of MEK and ERK phosphorylation ([2]; HT-29 cells): inhibited phosphorylation of MEK and ERK
- inhibition of MEK and ERK phosphorylation ([2]; SK-MEL-28 cells): inhibited phosphorylated MEK and ERK levels
- inhibition of colony formation vs corresponding controls [4]: much more effectively than the corresponding controls

Compound: Cc1ncsc1-c1ccc([C@H](C)NC(=O)[C@H]2C[C@H](O)CN2C(=O)[C@@H](NC(=O)CCCCCCCCCCN(C)CCCONC(=O)c2ccc(F)c(F)c2Nc2ccc(I)cc2F)C(C)(C)C)cc1 [Compound 51, (2R,4S)-1-((S)-20-(tert-Butyl)-1-(3,4-difluoro-2-((2-fluoro-4-iodophenyl)amino)phenyl)-7-methyl-1,18-dioxo-3-oxa-2,7,19-triazahenicosan-21-oyl)-4-hydroxy-N-((S)-1-(4-(4-methylthiazol-5-yl)phenyl)ethyl)pyrrolidine-2-carboxamide]
- inhibition of MEK and ERK phosphorylation compared with degraders 24, 27 and 50 [2]: much less potent

Compound: Cc1ncsc1-c1ccc([C@H](C)NC(=O)[C@H]2C[C@H](O)CN2C(=O)[C@@H](NC(=O)CCCCCCCCCCCNCCCCONC(=O)c2ccc(F)c(F)c2Nc2ccc(I)cc2F)C(C)(C)C)cc1 [Compound 52, (2R,4S)-1-((S)-22-(tert-Butyl)-1-(3,4-difluoro-2-((2-fluoro-4-iodophenyl)amino)phenyl)-1,20-dioxo-3-oxa-2,8,21-triazatricosan-23-oyl)-4-hydroxy-N-((S)-1-(4-(4-methylthiazol-5-yl)phenyl)ethyl)pyrrolidine-2-carboxamide]
- inhibition of MEK and ERK phosphorylation compared with degraders 24, 27 and 50 [2]: much less potent

Compound: O=C1CCC(N2C(=O)c3ccc(NCCOCCOCCOCCOCCOCCNCCCONC(=O)c4ccc(F)c(F)c4Nc4ccc(I)cc4F)cc3C2=O)C(=O)N1 (centres unmarked) [Compound 50, N-((1-((2-(2,6-Dioxopiperidin-3-yl)-1,3-dioxoisoindolin-5-yl)amino)-3,6,9,12,15-pentaoxa-18-azahenicosan-21-yl)oxy)-3,4-di-fluoro-2-((2-fluoro-4-iodophenyl)amino)benzamide]
- time of ERK phosphorylation inhibition ([2]; HT-29 cells, 0.3 μM): 8 to 10 h
- inhibition of MEK and ERK phosphorylation ([2]; HT-29 cells): inhibited MEK and ERK phosphorylation
- inhibition of MEK and ERK phosphorylation ([2]; SK-MEL-28 cells): inhibited MEK and ERK phosphorylation
- inhibition of colony formation vs corresponding controls [4]: much more effectively than the corresponding controls

Compound: Cc1ncsc1-c1ccc([C@H](C)NC(=O)[C@@H]2C[C@@H](O)CN2C(=O)[C@@H](NC(=O)CCCCCCCCCCN(C)CCCONC(=O)c2ccc(F)c(F)c2Nc2ccc(I)cc2F)C(C)(C)C)cc1 [Compound 24, (2S,4R)-1-((S)-20-(tert-Butyl)-1-(3,4-difluoro-2-((2-fluoro-4-iodophenyl)amino)phenyl)-7-methyl-1,18-dioxo-3-oxa-2,7,19-triazahenicosan-21-oyl)-4-hydroxy-N-((S)-1-(4-(4-methylthiazol-5-yl)phenyl)ethyl)pyrrolidine-2-carboxamide]
- growth inhibition potency compared with compound 4 [3]: better potency
- time to maximum ERK phosphorylation inhibition ([2]; HT-29 cells): ≤ 8 h
- time to significant ERK phosphorylation inhibition ([2]; HT-29 cells): ≤ 2 h
- inhibition of MEK and ERK phosphorylation ([2]; HT-29 cells): inhibited phosphorylation of MEK and ERK
- inhibition of MEK and ERK phosphorylation ([2]; SK-MEL-28 cells): inhibited phosphorylated MEK and ERK levels
- inhibition of colony formation vs corresponding controls [4]: much more effectively than the corresponding controls
